Experimental data from US20170056496A1 (Sanofi, priority 2008, published 2017).

Tested on: human Burkitt's lymphoma Namalwa
Test: Antitumor efficacy against advanced human Burkitt's lymphoma Namalwa implanted in SCID mice
[1] = CPA alone, IV day 11, 15, 68.2 mg/kg/inj (total 136.4)
[2] = CPA alone, IV day 11, 15, 110.0 mg/kg/inj (total 220.0)
[3] = hu38SB19 alone, IV, 40.0 mg/kg/inj (total 120.0), twice a week day 11-18

O=P1(N(CCCl)CCCl)NCCCO1 (stereo not shown) [cyclophosphamide]
Comments: antitumor activity rating [1]: Active | T-C in days (1000 mg), tumor growth delay [1]: 9.8 days | log10 cell kill gross [1]: 1.6 | log10 cell kill net [1]: 0.8 | Comments: antitumor activity rating [2]: Highly active | T-C in days (1000 mg), tumor growth delay [2]: 19.8 days | log10 cell kill gross [2]: 3.1 | log10 cell kill net [2]: 2.3 | T-C in days (1000 mg), tumor growth delay (CPA alone, IV day 11, 15, […] (total 354.8)): 30.1 days

hu38SB19: humanized anti-CD38 monoclonal antibody 38SB19; VH SEQ ID NO: 66, VL chosen from SEQ ID NOS: 62 and 64
Comments: antitumor activity rating (hu38SB19 alone, IV, 40.0 mg/kg/inj (total 120.0), highest dose tested): not active | T-C in days (1000 mg), tumor growth delay [3]: 2.5 days | log10 cell kill gross [3]: 0.4 | log10 cell kill net [3]: −0.9
